Test system: epidermal growth factor receptor (EGFR) on live A431 cells
Test: Live-cell imaging, quenching and cycling
Format: cell-based
Conditions: 4 s, 405 nm, no washing
Method: FIG. 4. Live-cell imaging and cycling. A. Cell viability assay determined for A431 cells incubated with FLASH-off 600 (0.15-40 μM, 72 h). […] B. Live-cell quenching experiments using anti-Cetuximab-FLASH-off 647 (657 nm channel, 6.9 mW cm-2) and line profile quenching (10 s, 405 nm 660 channel 660 μW cm^−2). C. […] Scale bars in B=20 μm and in C=5 μm.
FIG. 22. Live-cell quenching experiments. A. Live A431 cell experiments using Cetuximab-FLASH-off 647 and quenched (4s, 405 nm channel) with no washing steps. B. Zoomed in ROI of panel A showing selective staining of the membrane. C. […] Scale bars A & C=10 m, B=5 μm (n=3).
Cyclic imaging was performed during two cycles of staining to selectively distinguish four immune markers (CD45, MHCII, CD4, and CD8) and their abundance in splenocytes (FIG. 20). Statistical analysis of the total number of stained cells per marker matched previously reported values for murine splenocytes (79% CD45, 32% MHCII, 14% CD4 and 2% CD8 FIG. 20). […] While the above experiments were done in fixed cells, FLASH-off probes were also applied to live cells (cultured epidermoid carcinoma A431) to determine i) toxicity and ii) live cell imaging capabilities. […] Live A431 cells were next incubated with Cetuximab-FLASH-off 650 to stain for the epidermal growth factor receptor (EGFR). Distinctive membrane staining was observed, which co-localized with anti-EGFR-MB488 control. […]

In the case of “Cetuximab-FLASH-off 650: Cetuximab conjugated with FLASH-off 650 to stain EGFR”, the “signal quenching in live cells (in words)” value was “complete signal quenching” and the “signal quenching in live cells (in words)” value (listed as Cetuximab-FLASH-off 647) was “efficient quenching effect”.

Reference: patent US20250283800A1, “PROBES FOR FLUORESCENCE IMAGING” (The General Hospital Corporation, priority 2022, published 2025)
